Data taken from patent EP0787493A1, “Tetrahydroisoquinoline derivatives” (priority 1996, dated 1997).
Read-outs that look alike come from different tables or passages of the source.

Target: NMDA receptors
Experiment: 3H-MK801 (Dizocilpine) binding in vitro
Conditions: rat whole brain membranes, 5nM 3H-MK-801, glutamate, glycine and spermidine present
Description: 3H-MK801 (Dizocilpine) binding in vitro
The whole brain from 150-200g male rats, without cerebellum and without medulla oblongata was dissected on ice. The tissue was then homogenized with an Ultra-Turrax maximum speed during 30 seconds at 4°C in 50 volumes of cold Tris HCI 50mM, EDTA disodium 10mM, pH=7.4 buffer (wet weight/v). The homogenate was centrifuged at 48'000 x g (20'000 rpm, SS34, Sorvall RC5C) for 10 minutes. The pellet was rehomogenized with the same volume of buffer and the homogenate incubated at 37°C for 10 minutes. […]
The incubation was performed in the presence of 1nM glutamate, glycine and spermidine. […] Non specific binding was determined in presence of 100mM TCP. […] The air-dried filters were counted with 10ml of Ultima-gold (Packard) in a Tri-Carb 2500 TR scintillation counter after agitation.
The DPM were transformed in % of specific binding and these values were treated by a non linear regression calculation program (BINDING, H. Affolter, Switzerland) which provided the IC50 values for the low and high affinity binding sites (= concentrations producing half maximal inhibition at the respective sites). Each experiment was repeated at least three times and the final IC50 values were calculated as the mean +/-standard deviation of the individual experiments. […]

COc1cc2c(cc1OC)C(CCc1ccc(Cl)cc1)N(C)CC2 (centres unmarked) [J]
IC50 (high affinity binding site, read-out: 3H-MK 801 / IC50 (µM) high): 0.6 µM | IC50 (low affinity binding site, read-out: 3H-MK 801 / IC50 (µM) low): 107 µM
